The values below come from PubChem BioAssay AID624202 (National Center for Advancing Translational Sciences (NCATS), 2012).

Each structure is given as a SMILES string. The entries are a selection whose mix differs from that of the whole data set. Calls of active or inactive are those of the source. Calls come from the whole dose curve; as a rule, active = well fitted activation curve with a large enough effect; inconclusive = small, poorly fitted or top-dose-only effect; inactive = no such curve, though single readings can be large or run the other way.

The experiment in a line: qHTS Assay to Identify Small Molecule Activators of BRCA1 Expression. Note: nearly all actives have a fitted effect of over 80% in size. To be noted: MCF7-BRCA1-FFLuc reporter, luminescence, 48 h, scaled: vehicle 0%, 10 µM genistein 100%; at 46.1 µM (top of the series).
Regarding `CCC(=O)N(c1ccccc1)C1(COC)CCN(CCc2cccs2)CC1`, the activation was inactive: 7.84%.

In the case of `CCC(=O)N(c1ccccc1)C1(COC)CCN(CCn2nnn(CC)c2=O)CC1`, the activation was inactive: 4.15%.
